# Antibody variant affinities, Ab-14 light chain, assay B

All variants were tested on one target, the spike HR2 peptide PDVDLGDISGINAS (SARS-CoV-2).

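The parent was found by panning a naive human phage display library on the peptide. Designed CDR sequences, proposed from the first random library and measured here. Their group label is 14L_En_Gibbs (En: ensemble of fine-tuned language models; Gibbs: Gibbs sampling). In AlphaSeq, yeast of one mating type display the scFv and yeast of the other type display the target. Pairs that bind mate more often; barcode pairs of the diploids are counted by sequencing. The ratio of observed to expected reads was calibrated, replicate by replicate, on BCL2-family standards whose Kd was known from biolayer interferometry. The assay was run in six technical replicates.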

Parent scFv Ab-14: VH joined to VL by a 15-residue (Gly4Ser)3 linker. Changes lie in the light chain CDRs alone.
VH: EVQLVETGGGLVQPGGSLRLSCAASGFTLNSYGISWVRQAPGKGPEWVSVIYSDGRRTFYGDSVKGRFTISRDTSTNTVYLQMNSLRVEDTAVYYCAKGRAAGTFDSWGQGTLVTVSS
VL: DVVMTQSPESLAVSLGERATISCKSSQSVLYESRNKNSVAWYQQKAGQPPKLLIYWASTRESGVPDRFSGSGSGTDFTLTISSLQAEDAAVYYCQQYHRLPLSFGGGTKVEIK

Each variant is given by its three light chain CDRs, as the data file delimits them; those of the parent are KSSQSVLYESRNKNSVA, WASTRES, QQYHRLPLS. Scale: log10 of Kd in nM, estimated from mating counts; low values are strong binders. Replicates are averaged; those with no signal do not enter the mean. "nd" means that the variant was in the library but no mating with the target was seen in that replicate; the authors take this as a sign of poor binding, and no number exists. A sequence measured in both rounds can read differently, since the two assays cover different ranges.

CDR-L1,CDR-L2,CDR-L3,"replicates, log10 nM",mean log10 Kd (nM),control signals
KMKQSIEGNPKNWNSIA,DVDSVTE,QQYARLPLF,-0.31 / -0.19 / -0.28 / -0.43 / 0.38 / -0.48,-0.22,2 of 18 (2.20)
MITAVMNAYNGSFSSVA,DKTISVN,QQYHRLPLS,1.79 / 1.87 / 1.04 / 0.95 / 1.08 / 1.53,1.38,0 of 18
SLVSKADYMDSERQNIA,NMDTRNT,QQYFHLPLT,0.97 / 0.94 / 1.09 / 0.71 / 0.76 / 1.23,0.95,1 of 18 (2.12)
VLPDNLLMKESQYHSIA,NGVQRME,QQYMRLPLM,-0.06 / -0.10 / -0.09 / -0.28 / -0.22 / -0.06,-0.13,1 of 18 (2.72)
SLAMFEDNYNQLHNSVA,NTANIDI,QQYDRLPLS,nd / nd / 2.94 / nd / 2.04 / 2.96,2.65,1 of 18 (2.66)
RLQQEHVGYPKKMNAIA,QGSQRCH,QSYDRLPLS,1.27 / 1.54 / 1.76 / 1.21 / 1.72 / 1.65,1.52,1 of 18 (2.12)
KIQHLTYFESEGEWSVA,DANTSVL,QDYFRLPLS,0.12 / 0.65 / -0.05 / -0.06 / 0.26 / 0.55,0.24,0 of 18
RMQEDLQLGTNIGNNIA,EHQTVID,QQYAHLPLQ,1.53 / 1.06 / 1.71 / 1.88 / 0.93 / 1.03,1.36,0 of 18
VLGQNHDEREMYCDNIA,DATHREA,QQYYRLPFV,1.87 / 1.50 / 1.82 / 1.62 / 2.03 / 1.46,1.72,3 of 18 (2.66)
KLEEEADVITESGNSVA,EMSMVMS,QQYHRLPLA,0.30 / 0.53 / 1.07 / 1.70 / 1.88 / 1.50,1.16,0 of 18
LIKGMVDGQYYKQNNIA,DSEERDR,QQYNQLPLS,0.34 / 0.26 / 0.49 / 0.16 / 0.30 / 0.68,0.37,1 of 18 (1.59)
SLTSHEEESEGAEASVA,EASMLES,QQYHRLPLM,nd / nd / nd / nd / nd / nd,nd,0 of 18
SVHFMGTTGEQNRESIA,ENSIRVE,QQYSHLPLL,1.80 / 1.48 / 1.70 / 1.55 / 1.55 / 2.08,1.69,1 of 18 (3.43)
GIQSQMDGTSAVKENIA,NEAERLR,QQYQRLPLT,0.47 / 0.99 / 0.64 / 2.12 / 0.45 / 0.72,0.90,0 of 18
SMAYFQGGYNQQEKAIA,EAATRTQ,QQYFRLPLT,nd / nd / nd / nd / nd / nd,nd,0 of 18
MIFYGQERDIAHESSIA,NGMARVK,QQYHRLPLS,1.60 / 1.46 / 1.76 / 1.81 / 0.86 / 1.67,1.52,0 of 18
RLMGWGPDQIQHANSIA,DRDEVDM,QQYAHLPLS,0.30 / 0.43 / 0.44 / 2.76 / 1.73 / 1.42,1.18,0 of 18
KVDMYELPNGFNRSHVA,QAEVRAP,QQYWRLPLE,1.80 / 2.12 / 3.15 / nd / 3.01 / 2.18,2.45,1 of 18 (3.48)
NITQQGDNMGDQRANVA,NGETLFH,QQYAHLPLL,1.19 / 0.85 / 0.74 / 0.69 / 0.45 / 0.76,0.78,1 of 18 (2.76)
KLDHYKLGENGMRGSIA,NMTIRDQ,QQYFHLPLF,0.56 / 0.62 / 0.77 / 0.49 / 0.70 / 0.73,0.65,1 of 18 (3.22)
SLRMKELGMSYNANNVA,DSENRIK,QQYYRLPLM,1.39 / 1.24 / 1.36 / 1.21 / 1.12 / 1.32,1.27,2 of 18 (3.37)
NIVGRVEDNQTENNAIA,DAHCRAG,QQYSRLPIS,nd / 2.08 / 1.93 / 2.28 / 2.14 / 1.60,2.01,0 of 18
RIDSVWEQLTNRAQNVA,NATTVIA,QQYMRLPLV,1.63 / 1.28 / 0.90 / 1.14 / 0.72 / 1.48,1.19,0 of 18
QLGKNQVGDTLSQHAIA,HDALRVD,QQYFRLPLL,-0.05 / 0.20 / -0.21 / 0.07 / -0.04 / 0.08,0.01,0 of 18
RLQQEHVGYPKKMDAIA,QGSQRCH,QSYDRLPLS,1.06 / 1.00 / 1.19 / 1.02 / 1.76 / 1.46,1.25,3 of 18 (2.68)
NLVEMEGTNQTAIGNIA,SVDQRMS,QQYQRLPLI,nd / nd / nd / nd / nd / nd,nd,0 of 18
RVSSNLMAGGIHYNNIA,NTKVLEY,QQYMRLPLG,0.23 / 0.16 / 0.68 / 0.45 / 0.71 / 0.81,0.51,0 of 18
KIRVHNLMFYQNESSIA,GQSNRIE,QQYYHLPLT,2.32 / 1.74 / 2.02 / 2.88 / 2.78 / 2.69,2.40,2 of 18 (3.47)
KLRNEAIGWYRNGASIA,DENYRVD,QQYHHLPLL,1.09 / 1.55 / 2.08 / 1.67 / 1.19 / 2.12,1.62,0 of 18
QLQLQPGTGLNAQHSIA,DVSAKDM,QQYARLPLH,0.77 / 0.60 / 0.35 / 0.08 / 0.43 / 0.80,0.50,0 of 18
QIDDLDEDSQAEVSQVA,NAAEAIV,QQYQRLPLS,nd / nd / nd / nd / nd / nd,nd,1 of 18 (1.39)
SLAYTQHFGFQQEKAIA,EVATREQ,QQYFRLPLT,1.87 / 0.89 / 0.20 / 0.35 / 0.71 / 1.42,0.91,1 of 18 (2.15)
KLDASMYVGTEAKRAIA,QDEMRVH,QQYDRLPLM,1.39 / 1.77 / 1.55 / 1.75 / 1.22 / 1.75,1.57,0 of 18
KIEWFSMDNRLTISAIA,EASTIYQ,QQYGHLPLS,nd / nd / nd / nd / nd / nd,nd,0 of 18
KLQTLTYFENIGESSVA,DVNTHVD,QQYFRLPLS,1.95 / 1.00 / 0.38 / 1.51 / 1.56 / 0.78,1.19,0 of 18
HIQEVDNQVENQNGNVA,DASEYLA,QQYFQLPIS,1.79 / 2.61 / 1.90 / 2.96 / 1.44 / 1.54,2.04,2 of 18 (2.81)
SMRAVGCDWQRNHSNIA,DATQIED,QQYVMLPLS,1.43 / 1.08 / 0.91 / 2.84 / 2.95 / 1.52,1.79,0 of 18
YIAGNSDNLYQNTSSVA,ETNQVRQ,QQYHLLPLA,1.86 / 1.49 / 1.06 / 2.52 / 2.58 / 2.78,2.05,0 of 18
AMREDFYQGQVEMSAIA,DGEHLNM,QQYSHLPLS,0.45 / 0.23 / 0.33 / 0.80 / 0.59 / 1.13,0.59,1 of 18 (1.98)

The parent sequence was in this pool as ten entries: three were never detected, three once, and four in most replicates, with averages from 0.34 to 2.37. Background: pairings of all light chain designs with three empty control strains gave a value in 4% of cases (median 2.64, 5th percentile 1.59). Values in that range, when seen in few replicates, are hard to tell from nonspecific mating. Also given: how often the same scFv was detected with the empty control strains, with their mean in brackets. The authors averaged sequences with at least three values out of six and counted those with two or fewer as poor binders.

Values reported by Li et al. 2023, doi:10.1038/s41467-023-39022-2 (FLAb copy).